Binding of CDR-mutated scFvs to a peptide of the spike HR2 region

Target peptide (SARS-CoV-2 spike, HR2 region): PDVDLGDISGINAS

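The starting antibody came from a phage panning campaign against this peptide. This is the validation round: designs drawn from the data on random variants, tested in the same kind of assay. Group labels follow the data file (Ctrl: baseline library sampled from a position-specific scoring matrix, with some repeated check sequences; GP: Gaussian process model; GPLM: also part of the Gaussian process libraries; HC: hill climbing; a sequence that several methods proposed may carry one label only). In AlphaSeq, yeast of one mating type display the scFv and yeast of the other type display the target. The frequency of each diploid, read from paired DNA barcodes, reflects how well the two displayed proteins bind. A regression on co-assayed BCL2-family reference pairs converts the normalised counts of each replicate to an apparent Kd. Each pool was mated in six replicate cultures.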

Parent: Ab-14, a human scFv built as VH, three GGGGS repeats, VL. Only the CDRs of the light chain vary.
VH: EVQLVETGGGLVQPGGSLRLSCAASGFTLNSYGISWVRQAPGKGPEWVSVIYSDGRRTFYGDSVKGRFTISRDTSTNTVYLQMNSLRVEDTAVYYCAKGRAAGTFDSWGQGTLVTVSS
VL: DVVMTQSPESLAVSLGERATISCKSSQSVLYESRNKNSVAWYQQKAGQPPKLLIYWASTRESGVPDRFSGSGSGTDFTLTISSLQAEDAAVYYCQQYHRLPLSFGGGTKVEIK

Variants are written as CDR1, CDR2 and CDR3 of the light chain (limits as in the source). Parent: KSSQSVLYESRNKNSVA, WASTRES, QQYHRLPLS. Scale: log10 of Kd in nM, estimated from mating counts; low values are strong binders. Replicates are averaged; those with no signal do not enter the mean. An entry "n.d." has no value in the source: the pair was not observed among the diploids in that replicate. This suggests poor binding but is not conclusive. Three control strains display no target. For all light chain designs, 4% of the pairings with them gave a signal, with a median of 2.64 and one signal in twenty below 1.59, so weak values seen in few replicates may be background. Also given: how often the same scFv was detected with the empty control strains, with their mean in brackets. The authors' rule: three or more of the six replicates give a measured affinity, fewer mean a poor binder. A sequence measured in both rounds can read differently, since the two assays cover different ranges. Some sequences occur more than once in the pool; their replicates are listed entry by entry, parted by semicolons. Of ten entries with the parent sequence, four were seen in most replicates (averages 0.34 to 2.37), three in one and three in none, so single entries are noisy.

CDR-L1 | CDR-L2 | CDR-L3 | group | replicates, log10 nM | mean, log10 nM | control signals
KSSQSVLYEFRNKNSVA | WASTRES | QQVFRLPLS | Ctrl | n.d. n.d. n.d. n.d. n.d. n.d. | n.d. | 0 of 18
KSSQSVLYESRNKNSVA | EASTRWS | QQYHRLPLS | Ctrl | 1.20 1.77 1.95 1.11 1.06 0.64 | 1.29 | 1 of 18 (2.82)
KSSQSVLYESRNKQNVA | WGSTRES | QQYHRLPLS | Ctrl | 0.26 1.24 0.90 0.55 2.76 2.11 | 1.30 | 0 of 18
KCSQHVLYESRNKNSVA | WASTRES | QQYHRLPLS | Ctrl | n.d. 2.37 n.d. 1.93 2.65 n.d. | 2.32 | 0 of 18
KSSQSVVYESRNKNSVA | EASTREA | QQYHRLPAS | Ctrl | 1.76 0.45 1.48 1.15 0.56 0.83 | 1.04 | 2 of 18 (2.37)
KSSQSVLYESDNKNSVA | WASTRTS | QQDHQLPLS | Ctrl | n.d. n.d. n.d. n.d. n.d. n.d. | n.d. | 0 of 18
KISQSVLQESRNKNSVA | WASTRES | QQYHRLPLS | Ctrl | 0.48 0.79 0.32 0.40 -0.03 0.60 | 0.43 | 3 of 18 (2.10)
KSSQSVLYESRNKNPVA | GASTRES | QQYHRLPLS | Ctrl | 1.29 1.38 1.48 1.27 1.04 1.47 | 1.32 | 1 of 18 (3.11)
KSSQSVLYESRNKNSVA | WASTRES | QQYHRLTLS | Ctrl | n.d. n.d. n.d. n.d. n.d. n.d. | n.d. | 0 of 18
KSSQSVLYESRNKHSVA | WAIIRES | QWYHRLPLS | Ctrl | n.d. n.d. n.d. n.d. n.d. n.d. | n.d. | 0 of 18
KSSQSVYYESRNKNSVA | WASERES | QQYHRLPLS | Ctrl | n.d. n.d. n.d. n.d. n.d. n.d. | n.d. | 1 of 18 (2.38)
KSSQSVLYESRNKNSVA | HASTREV | QQYHRLPLS | Ctrl | 0.77 0.87 0.54 0.70 0.82 0.76 | 0.74 | 1 of 18 (2.85)
KSDQSVLYESRNKNSVA | AASTRES | QQYHRLPLD | Ctrl | 1.31 1.14 1.08 0.95 0.99 1.15 | 1.10 | 0 of 18
KSSLSVLDESDQKNSVA | GASTREM | QQYHRLPLS | Ctrl | 1.11 1.18 0.81 1.79 1.17 0.88 | 1.16 | 0 of 18
KSSQSVLYESRNKNSVA | SASLRES | QQYHRLPLS | Ctrl | 0.41 0.75 0.33 0.39 0.26 0.53 | 0.45 | 1 of 18 (2.36)
KYSQSVLYESRNKNSVA | WASTRES | QQYHGLPLS | Ctrl | 3.43 n.d. n.d. n.d. 3.17 n.d.; n.d. n.d. 1.78 2.32 2.39 n.d.; 2.00 2.80 3.78 2.92 2.71 n.d.; n.d. n.d. n.d. 3.07 n.d. n.d.; 1.61 n.d. n.d. 1.79 n.d. 2.90 | 2.62 | 3 of 90 (2.52)
KSSQSVLYESRNKNSVA | AASTRES | QQYAELPLS | Ctrl | 0.54 1.16 0.73 0.57 0.85 0.92 | 0.80 | 2 of 18 (3.16)
KMSQSVLYESRNANSVA | KASTRES | YQYHRLPLS | Ctrl | 0.20 0.28 0.40 0.82 0.47 1.82 | 0.67 | 0 of 18
KSSQSVLYESRNKNSVA | WAWTREE | QQYHRLPLS | Ctrl | n.d. 2.62 n.d. n.d. n.d. n.d. | 2.62 | 0 of 18
KSLQSVLYESRNGNSVA | WASTRES | QQYHRLPLS | Ctrl | n.d. n.d. n.d. n.d. n.d. 1.27 | 1.27 | 1 of 18 (1.20)
KSSQSVLYESRNKNSVA | WASTRES | QQYHRNPLS | Ctrl | n.d. n.d. n.d. n.d. n.d. n.d. | n.d. | 2 of 18 (1.98)
KMSNSVLYESRNKNSVA | WASTRES | QQYHKLPLS | Ctrl | 0.78 0.98 0.76 0.41 0.96 0.55 | 0.74 | 0 of 18
KSSQSHLSESRNKNSVA | AASTRES | QQYHRLPLS | Ctrl | 0.14 0.06 0.02 -0.01 0.13 0.30 | 0.11 | 1 of 18 (2.37)
KSSQSGLEESRNKNSVA | SASTRES | QQYHELPLS | Ctrl | 1.25 2.14 1.19 1.20 1.14 0.72 | 1.27 | 0 of 18
KVSQSLLYESRNSNSVA | WASTRES | QQYHRLPLS | Ctrl | 0.98 0.96 0.18 0.59 0.58 0.77 | 0.68 | 2 of 18 (3.02)
KTSQSCLMESRNFNSVA | HASTRES | QQYSRLPLS | Ctrl | 0.40 0.71 0.50 0.28 0.04 0.58 | 0.42 | 1 of 18 (1.08)
KSSQSVFYESRNKNSVA | WASTRES | QQYHREPLS | Ctrl | n.d. n.d. n.d. n.d. n.d. n.d. | n.d. | 0 of 18
KSSQSVLDESRNHNNVA | WASTRES | QQYFRLPLS | Ctrl | n.d. n.d. n.d. n.d. n.d. n.d. | n.d. | 0 of 18
KSSISVLDYDRNKNSVA | WASERES | QQYHRLPLS | Ctrl | 1.55 1.16 0.63 0.80 1.21 1.23 | 1.10 | 0 of 18
KMSQSVLYESRNKNAVA | DASTRES | QQYHRLPLS | Ctrl+GP_HC | -0.24 -0.43 -0.47 -0.50 -0.43 -0.29; 0.06 -0.14 -0.20 -0.14 -0.12 -0.05 | -0.25 | 2 of 36 (3.13)
KSSQSWLYESRNKNSVA | AASTRMS | QVYHHLPLS | Ctrl | 1.24 1.23 1.24 1.30 1.27 1.32 | 1.27 | 2 of 18 (2.87)
KSSQSVLYESRNKNSVA | QASCRES | QQYHRLPLN | Ctrl | 1.60 1.44 1.15 1.51 2.14 1.23 | 1.51 | 0 of 18
KSSQSCLDESHNKNSVA | WASTRES | QQYHRLPLS | Ctrl | 2.81 1.80 1.84 1.83 1.64 2.47 | 2.07 | 0 of 18
KSSQSVWYESREKNSVA | WASTRES | QQPHRHPLS | Ctrl | n.d. n.d. n.d. n.d. n.d. n.d. | n.d. | 0 of 18
KSSTSVLYGERNHNSVA | DASTRES | QQYHRLPLS | Ctrl | 0.38 0.45 0.28 0.28 0.28 0.61 | 0.38 | 0 of 18
KLSQSPLYESRNKNSVA | SASTRES | QQYRRLPLS | Ctrl | 0.52 -0.20 -0.21 -0.04 0.25 -0.13 | 0.03 | 0 of 18
KQSQSVPYESRNKNSVA | GASTREQ | QQYHRLPLS | Ctrl | 0.24 0.17 0.25 0.06 0.18 0.36 | 0.21 | 2 of 18 (2.48)
KSSQSGLVESRNPNSVA | WASTRES | QQYHRLPLS | Ctrl | n.d. n.d. n.d. 2.63 2.23 0.75 | 1.87 | 1 of 18 (2.10)
KSSQSVLYESRNKNSVA | NAEQRES | QQYHRLPLS | Ctrl | 0.78 0.92 0.12 0.25 0.56 0.41 | 0.50 | 0 of 18
KSSQSDQYESRMKNSVA | WASTREF | QQYHRLPLS | Ctrl | n.d. n.d. 1.50 n.d. n.d. 1.30 | 1.40 | 1 of 18 (2.18)
KSSQSVLYESRNPNSVA | WASKRAS | QAYHRLPLS | Ctrl | 1.63 1.93 1.39 2.27 2.35 1.78 | 1.89 | 2 of 18 (3.37)
KSSQSVLYESMNKNSVA | EASTRES | QQYHRLPLS | Ctrl+GPLM_HC | 0.82 -0.12 0.77 0.64 1.13 0.61; 0.21 0.01 0.15 -0.08 0.21 0.27 | 0.38 | 3 of 36 (1.99)
MSSQSVLYESRNKNSNA | DASTRLS | QQYHRLPLS | Ctrl | 0.75 1.18 1.14 1.67 1.69 2.02 | 1.41 | 2 of 18 (2.42)

Excerpt, the first 7 entries:

| CDR-L1 | CDR-L2 | CDR-L3 | group | replicates, log10 nM | mean, log10 nM | control signals |
|---|---|---|---|---|---|---|
| KSSQSVLYEFRNKNSVA | WASTRES | QQVFRLPLS | Ctrl | n.d. n.d. n.d. n.d. n.d. n.d. | n.d. | 0 of 18 |
| KSSQSVLYESRNKNSVA | EASTRWS | QQYHRLPLS | Ctrl | 1.20 1.77 1.95 1.11 1.06 0.64 | 1.29 | 1 of 18 (2.82) |
| KSSQSVLYESRNKQNVA | WGSTRES | QQYHRLPLS | Ctrl | 0.26 1.24 0.90 0.55 2.76 2.11 | 1.30 | 0 of 18 |
| KCSQHVLYESRNKNSVA | WASTRES | QQYHRLPLS | Ctrl | n.d. 2.37 n.d. 1.93 2.65 n.d. | 2.32 | 0 of 18 |
| KSSQSVVYESRNKNSVA | EASTREA | QQYHRLPAS | Ctrl | 1.76 0.45 1.48 1.15 0.56 0.83 | 1.04 | 2 of 18 (2.37) |
| KSSQSVLYESDNKNSVA | WASTRTS | QQDHQLPLS | Ctrl | n.d. n.d. n.d. n.d. n.d. n.d. | n.d. | 0 of 18 |
| KISQSVLQESRNKNSVA | WASTRES | QQYHRLPLS | Ctrl | 0.48 0.79 0.32 0.40 -0.03 0.60 | 0.43 | 3 of 18 (2.10) |

Data: MIT Lincoln Laboratory AlphaSeq set, Li et al. 2023, doi:10.1038/s41467-023-39022-2, as distributed in FLAb.